A short description of this data set: Spinach-based RNA sensor fluorescence in response to guanine. The note with it: 0.1 μM RNA, 10 μM DFHBI, same concentration as guanine. Format: biochemical.

“Also recorded” adds a separate entry of the source.

B1: guanine sensor: Spinach-based turn-on RNA sensor for guanine (nucleic acid)
chain: GACGCGACUGAAUGAAAUGGUGAAGGACGGGUCCAGAUAAUCGCGUGGAUAUGGCACGCAAGUUUCUACCGGGCACCGUAAAUGUCCGACUCUUGUUGAGUAGAGUGUGAGCUCCGUAACUAGUCGCGUC
modifications: chemistry not given here
As to B1, the “molecular discrimination: guanosine or adenine” value was “no fluorescence; also recorded: Only baseline fluorescence”.

For the origin of these results see patent US10444224B2, “Method for RNA detection and quantification” (Cornell University, priority 2011, dated 2019).
